This assay has as its system H1975. Kind of assay: Cell proliferation / survival inhibition by MTS analysis (H1975). It is filed as cell-based. The following applies: Homo sapiens. As to the method: Sk-Br3 (Korean cell line bank), a breast cancer cell, and H1975 cell (ATCC), a nonsmall cell lung cancer, were cultured in RPMI 1640 containing 25 mM HEPES (4-(2-hydroxyethyl)-1-piperazineethanesulfonic acid) and RPMI 1640 containing L-glutamine (containing streptomycin ([…]), penicillin (100 units/mL) and 10% fetal bovine serum (FBS)).
Next, non-metastatic lung cancer cells were treated with Compound 17 and the cell proliferation rate or cell survival rate was measured by MTS [3-(4,5-dimethylthiazol-2-yl)-5-(3-carboxymethoxyphenyl)-1-2H-tetrazolium, inner salt] analysis.
Cells were dispensed in 96-well plates at 3000 cell/well (Sk-Br3) and 2000 cell/well (H1975), and 100 μL of the medium was added per well and then was incubated overnight. […]
Cell proliferation was evaluated using the Promega Cell Titer 96 Aqueous One Solution cell proliferation assay. […]
Cell proliferation was confirmed by measuring the absorbance at 490 nm using a microplate reader (Tecan Infinite F200 Proplate reader).
Compound 17 at a concentration of 0, 0.01, 0.1, 1, 5, 10, 30, 50 or 70 μM or 1% DMSO vehicle (control group) was added to each well and incubated at 37° C. for 72 hours and the absorbance was measured at 490 nm and the measured value was expressed as a percentage of the absorbance of the cells cultured only with DMSO to confirm cell survival.

As for `O=C1CCN(C(=O)c2cc(Cl)c(O)cc2O)CC1` [Compound 11i, 1-(5-chloro-2,4-dihydroxybenzoyl)piperidin-4-one], for the setting “NCI-H1975, read-out: Inhibition rate at 10 μM (%)”, the inhibition at 10 µM is 12.5%. Moreover, the inhibition at 30 µM (NCI-H1975, read-out: Inhibition rate at 30 μM (%)) came out at 48.2%.

Broadly, the inhibition is the change of the read-out against control, counted positive when it falls.

The record behind these values is patent US10889552B2, “Dihydroxybenzamide compound having HSP90 inhibitory activity or pharmaceutically acceptable salt thereof, and medical use thereof” (priority 2016, dated 2021).
